Cyclic peptide permeability, from CycPeptMPDB

Data: CycPeptMPDB; original report Kelly et al. 2021, doi:10.1021/jacs.0c06115.

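The data file gives no further conditions (lipid, pH, time, direction or concentration), and values from different papers need not be comparable. The list need not hold all peptides of the study. Entries at the database's floor value (log10 P of -10) are not listed.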

PAMPA measures passive passage through an artificial lipid membrane.
MDCK values are permeabilities across Madin-Darby canine kidney cell monolayers.
P is given in units of 10^-6 cm/s (from log10 values with two decimals); larger means faster passage.
"n/a" marks a cell with nothing listed here.

structure (SMILES)	PAMPA (10^-6 cm/s)	MDCK (10^-6 cm/s)
CC(=O)N1CCC[C@H]1C(=O)N(C)[C@@H](CC(C)C)C(=O)N[C@@H]1C(=O)N[C@@H](CC(C)C)C(=O)N[C@H](CC(C)C)C(=O)N[C@H](CC(C)C)C(=O)N[C@H](C)C(=O)N[C@H](CC(C)C)C(=O)N2CCC[C@H]2C(=O)O[C@@H]1C	0.13	n/a
CC(=O)N1CCC[C@H]1C(=O)N(C)[C@@H](CC(C)C)C(=O)N[C@@H]1C(=O)N(C)[C@@H](CC(C)C)C(=O)N[C@@H](CC(C)C)C(=O)N(C)[C@@H](CC(C)C)C(=O)N[C@@H](C)C(=O)N[C@H](CC(C)C)C(=O)N2CCC[C@@H]2C(=O)O[C@@H]1C	0.11	0.5
CC(=O)N1CCC[C@H]1C(=O)N(C)[C@@H](CC(C)C)C(=O)N[C@@H]1C(=O)N[C@H](CC(C)C)C(=O)N[C@@H](CC(C)C)C(=O)N(C)[C@H](CC(C)C)C(=O)N(C)[C@@H](C)C(=O)N[C@H](CC(C)C)C(=O)N2CCC[C@@H]2C(=O)O[C@@H]1C	4	n/a
CC(=O)N1CCC[C@H]1C(=O)N[C@@H]1C(=O)N[C@H](CC(C)C)C(=O)N[C@@H](CC(C)C)C(=O)N[C@H](CC(C)C)C(=O)N(C)[C@@H](CC(C)C)C(=O)N[C@@H](C)C(=O)N[C@@H](CC(C)C)C(=O)N2CCC[C@@H]2C(=O)O[C@@H]1C	1.5	n/a
CC(=O)N1CCC[C@H]1C(=O)N(C)[C@@H](CC(C)C)C(=O)N[C@@H]1C(=O)N[C@@H](CC(C)C)C(=O)N[C@@H](CC(C)C)C(=O)N[C@H](CC(C)C)C(=O)N(C)[C@H](C)C(=O)N[C@H](CC(C)C)C(=O)N2CCC[C@@H]2C(=O)O[C@@H]1C	0.14	n/a
CC(=O)N1CCC[C@@H]1C(=O)N(C)[C@@H](CC(C)C)C(=O)N[C@@H]1C(=O)N[C@H](CC(C)C)C(=O)N[C@H](CC(C)C)C(=O)N(C)[C@@H](CC(C)C)C(=O)N(C)[C@@H](C)C(=O)N[C@H](CC(C)C)C(=O)N2CCC[C@@H]2C(=O)O[C@@H]1C	3.8	n/a
CC(=O)N1CCC[C@H]1C(=O)N(C)[C@@H](CC(C)C)C(=O)N[C@@H]1C(=O)N[C@@H](CC(C)C)C(=O)N[C@@H](CC(C)C)C(=O)N(C)[C@H](CC(C)C)C(=O)N[C@H](C)C(=O)N[C@@H](CC(C)C)C(=O)N2CCC[C@H]2C(=O)O[C@@H]1C	1	n/a
CC(=O)N1CCC[C@@H]1C(=O)N(C)[C@@H](CC(C)C)C(=O)N[C@@H]1C(=O)N(C)[C@H](CC(C)C)C(=O)N(C)[C@@H](CC(C)C)C(=O)N[C@H](CC(C)C)C(=O)N(C)[C@H](C)C(=O)N[C@@H](CC(C)C)C(=O)N2CCC[C@@H]2C(=O)O[C@@H]1C	9.3	n/a
CC(=O)N1CCC[C@H]1C(=O)N(C)[C@@H](CC(C)C)C(=O)N[C@@H]1C(=O)N[C@@H](CC(C)C)C(=O)N[C@H](CC(C)C)C(=O)N[C@@H](CC(C)C)C(=O)N[C@@H](C)C(=O)N[C@@H](CC(C)C)C(=O)N2CCC[C@H]2C(=O)O[C@@H]1C	0.05	n/a
CC(=O)N1CCC[C@H]1C(=O)N(C)[C@@H](CC(C)C)C(=O)N[C@@H]1C(=O)N(C)[C@@H](CC(C)C)C(=O)N[C@H](CC(C)C)C(=O)N(C)[C@@H](CC(C)C)C(=O)N(C)[C@@H](C)C(=O)N[C@H](CC(C)C)C(=O)N2CCC[C@@H]2C(=O)O[C@@H]1C	1.7	n/a
CC(=O)N1CCC[C@H]1C(=O)N(C)[C@H](CC(C)C)C(=O)N[C@@H]1C(=O)N(C)[C@@H](CC(C)C)C(=O)N[C@@H](CC(C)C)C(=O)N[C@@H](CC(C)C)C(=O)N[C@@H](C)C(=O)N[C@H](CC(C)C)C(=O)N2CCC[C@@H]2C(=O)O[C@@H]1C	0.024	n/a
CC(=O)N1CCC[C@@H]1C(=O)N(C)[C@@H](CC(C)C)C(=O)N[C@@H]1C(=O)N(C)[C@@H](CC(C)C)C(=O)N[C@H](CC(C)C)C(=O)N(C)[C@@H](CC(C)C)C(=O)N(C)[C@@H](C)C(=O)N[C@H](CC(C)C)C(=O)N2CCC[C@H]2C(=O)O[C@@H]1C	1.9	n/a
CC(=O)N1CCC[C@@H]1C(=O)N(C)[C@@H](CC(C)C)C(=O)N[C@@H]1C(=O)N(C)[C@@H](CC(C)C)C(=O)N[C@H](CC(C)C)C(=O)N[C@@H](CC(C)C)C(=O)N[C@@H](C)C(=O)N[C@H](CC(C)C)C(=O)N2CCC[C@@H]2C(=O)O[C@@H]1C	0.81	n/a
CC(=O)N1CCC[C@@H]1C(=O)N(C)[C@H](CC(C)C)C(=O)N[C@@H]1C(=O)N[C@H](CC(C)C)C(=O)N[C@H](CC(C)C)C(=O)N(C)[C@@H](CC(C)C)C(=O)N(C)[C@H](C)C(=O)N[C@H](CC(C)C)C(=O)N2CCC[C@H]2C(=O)O[C@@H]1C	1.1	n/a
CC(=O)N1CCC[C@@H]1C(=O)N(C)[C@@H](CC(C)C)C(=O)N[C@@H]1C(=O)N(C)[C@@H](CC(C)C)C(=O)N[C@@H](CC(C)C)C(=O)N[C@@H](CC(C)C)C(=O)N(C)[C@@H](C)C(=O)N[C@@H](CC(C)C)C(=O)N2CCC[C@@H]2C(=O)O[C@@H]1C	0.44	n/a
CC(=O)N1CCC[C@@H]1C(=O)N(C)[C@@H](CC(C)C)C(=O)N[C@@H]1C(=O)N(C)[C@H](CC(C)C)C(=O)N[C@H](CC(C)C)C(=O)N[C@H](CC(C)C)C(=O)N(C)[C@@H](C)C(=O)N[C@H](CC(C)C)C(=O)N2CCC[C@@H]2C(=O)O[C@@H]1C	0.95	n/a
CC(=O)N1CCC[C@H]1C(=O)N(C)[C@@H](CC(C)C)C(=O)N[C@@H]1C(=O)N(C)[C@H](CC(C)C)C(=O)N[C@H](CC(C)C)C(=O)N(C)[C@@H](CC(C)C)C(=O)N(C)[C@H](C)C(=O)N[C@H](CC(C)C)C(=O)N2CCC[C@H]2C(=O)O[C@@H]1C	0.81	n/a
CC(=O)N1CCC[C@H]1C(=O)N[C@@H]1C(=O)N(C)[C@H](CC(C)C)C(=O)N[C@H](CC(C)C)C(=O)N[C@@H](CC(C)C)C(=O)N[C@H](CC(C)C)C(=O)N[C@H](C)C(=O)N[C@@H](CC(C)C)C(=O)N2CCC[C@@H]2C(=O)O[C@@H]1C	0.27	n/a
CC(=O)N1CCC[C@H]1C(=O)N(C)[C@H](CC(C)C)C(=O)N[C@@H]1C(=O)N[C@H](CC(C)C)C(=O)N[C@H](CC(C)C)C(=O)N[C@@H](CC(C)C)C(=O)N[C@@H](C)C(=O)N[C@@H](CC(C)C)C(=O)N2CCC[C@@H]2C(=O)O[C@@H]1C	3	n/a
CC(=O)N1CCC[C@H]1C(=O)N(C)[C@@H](CC(C)C)C(=O)N[C@@H]1C(=O)N[C@@H](CC(C)C)C(=O)N(C)[C@@H](CC(C)C)C(=O)N[C@H](CC(C)C)C(=O)N[C@H](C)C(=O)N[C@@H](CC(C)C)C(=O)N2CCC[C@@H]2C(=O)O[C@@H]1C	5.8	n/a
CC(=O)N1CCC[C@H]1C(=O)N(C)[C@H](CC(C)C)C(=O)N[C@@H]1C(=O)N[C@@H](CC(C)C)C(=O)N[C@@H](CC(C)C)C(=O)N(C)[C@@H](CC(C)C)C(=O)N(C)[C@@H](C)C(=O)N[C@H](CC(C)C)C(=O)N2CCC[C@H]2C(=O)O[C@@H]1C	0.47	n/a
CC(=O)N1CCC[C@@H]1C(=O)N(C)[C@@H](CC(C)C)C(=O)N[C@@H]1C(=O)N(C)[C@H](CC(C)C)C(=O)N[C@H](CC(C)C)C(=O)N(C)[C@H](CC(C)C)C(=O)N[C@@H](C)C(=O)N[C@@H](CC(C)C)C(=O)N2CCC[C@@H]2C(=O)O[C@@H]1C	0.45	n/a
CC(=O)N[C@@H]1C(=O)N2CCC[C@H]2C(=O)N(C)[C@H](CC(C)C)C(=O)N[C@H](CC(C)C)C(=O)N[C@H](CC(C)C)C(=O)N(C)[C@@H](CC(C)C)C(=O)N(C)[C@H](C)C(=O)N[C@@H](CC(C)C)C(=O)N2CCC[C@@H]2C(=O)O[C@@H]1C	2.2	n/a

Extract of 3 entries:

{"smiles": "CC(=O)N1CCC[C@H]1C(=O)N(C)[C@@H](CC(C)C)C(=O)N[C@@H]1C(=O)N[C@@H](CC(C)C)C(=O)N[C@H](CC(C)C)C(=O)N[C@H](CC(C)C)C(=O)N[C@H](C)C(=O)N[C@H](CC(C)C)C(=O)N2CCC[C@H]2C(=O)O[C@@H]1C", "PAMPA (10^-6 cm/s)": "0.13"}
{"smiles": "CC(=O)N1CCC[C@H]1C(=O)N(C)[C@@H](CC(C)C)C(=O)N[C@@H]1C(=O)N[C@@H](CC(C)C)C(=O)N[C@@H](CC(C)C)C(=O)N(C)[C@H](CC(C)C)C(=O)N[C@H](C)C(=O)N[C@@H](CC(C)C)C(=O)N2CCC[C@H]2C(=O)O[C@@H]1C", "PAMPA (10^-6 cm/s)": "1"}
{"smiles": "CC(=O)N1CCC[C@@H]1C(=O)N(C)[C@@H](CC(C)C)C(=O)N[C@@H]1C(=O)N(C)[C@H](CC(C)C)C(=O)N[C@H](CC(C)C)C(=O)N(C)[C@H](CC(C)C)C(=O)N[C@@H](C)C(=O)N[C@@H](CC(C)C)C(=O)N2CCC[C@@H]2C(=O)O[C@@H]1C", "PAMPA (10^-6 cm/s)": "0.45"}